# Only a part is listed here, and it is no random draw. Results filed as inconclusive are left out. Activity calls are given as the source filed them. Calls follow the shape of the dose curve; as a rule, active = well fitted activation curve with a large enough effect; inconclusive = small, poorly fitted or top-dose-only effect; inactive = no such curve, though single readings can be large or run the other way.
# Assay: qHTS Assay for Enhancers of SMN2 Splice Variant Expression; also: % of control where 0% means no effect; nearly all actives have a fitted effect of over 55% in size
# Conditions: HEK293 SMN2-luciferase splicing reporter, luminescence, 30-36 h; at 46.1 µM (top of the series) unless noted
row,Structure (SMILES),"activity change, positive = activation"
1,O=C(OC1CN2CCC1CC2)C1c2ccccc2Oc2ccccc21 (stereo not drawn),inactive: 5.3%
2,CCOC(=O)N1CCC(Nc2ccc(OC)cc2)CC1,inactive: 4.73%
3,O=C(NCC1(N2CCOCC2)CCCCC1)c1cc2ccccc2o1,inactive: -7.6%
4,COc1ccc(C(=O)NCC2(N3CCCCC3)CCCCC2)c(OC)c1OC,inactive: -12.6%
5,COc1ccc(NC2CCN(CCc3ccccc3)CC2)c(OC)c1,inactive: -8.21%
6,O=C(NCC1(N2CCOCC2)CCCCC1)c1cc(=O)[nH]c2ccccc12,inactive: 1.64%
7,CN1CCN(CCOC(=O)C(O)(c2ccccc2)c2ccccc2)CC1,inactive: -1.58%
8,COc1ccc(NC2CCN(C(=O)OC(C)(C)C)CC2)cc1,inactive: -24.8%
9,O=[N+]([O-])c1cc([N+](=O)[O-])c(NCC2CCS(=O)(=O)C2)c([N+](=O)[O-])c1 (stereo not drawn),inactive: -3.85%
10,O=C(NCC1(N2CCCCC2)CCCCC1)c1cccc([N+](=O)[O-])c1,inactive: -5.08%
11,NC1CCCCC1.NP(=O)(O)N(CCCl)CCCl,inactive: -3.02% [at 9.22 µM]
12,CCOP(=O)(Cl)Cl,inactive: -0.123%
13,CC(C)c1ccc(NC2CCN(C(=O)OC(C)(C)C)CC2)cc1,inactive: -15.9%
14,CN(C)c1cccc(C(=O)NCC2(N3CCCCC3)CCCCC2)c1,inactive: 24.7%
15,O=C(OC1CN2CCC1CC2)C1c2ccccc2C=Cc2ccccc21 (stereo not drawn),inactive: -3.53%
16,N/C(=N\O)c1c(N)no[n+]1[O-],inactive: -14.9%
17,COc1ccc(C(=O)NCC2(N3CCOCC3)CCCCC2)cc1OC,inactive: -9.92%
18,ClCCOP(OCCCl)OCCCl,inactive: -5.22%
19,c1ccc(CN2CCC(Nc3ccccc3)CC2)cc1,inactive: -14.5%
20,N#Cc1ccc(C(=O)NCC2(N3CCCCC3)CCCCC2)cc1,inactive: 1.33%
21,CN(C)c1ccc(C(=O)NCC2(N3CCCCC3)CCCCC2)cc1,inactive: 4.43%
22,CCN1CCC(Nc2cccc(F)c2)CC1,inactive: -6%
23,Fc1ccccc1NC1CCN(Cc2ccccc2)CC1,inactive: 8.17%
24,COc1cc(OC)cc(C(=O)NCC2(N3CCOCC3)CCCCC2)c1,inactive: 8.03%
25,CCC(CO)(C(=O)OC1CN2CCC1CC2)c1ccccc1 (stereo not drawn),inactive: -7.02%
26,O=C(O)C1(Nc2ccccc2)CCN(Cc2ccccc2)CC1,inactive: -16.9% [at 9.22 µM]
27,CC(C)(C)OC(=O)N1CCC(Nc2ccccc2)CC1,inactive: -7.2%
28,CCOc1ncccc1C(=O)NCC1(N2CCOCC2)CCCCC1,inactive: 18%

# — PubChem BioAssay AID1458 (National Center for Advancing Translational Sciences (NCATS), 2008)
